Source: ChEMBL document CHEMBL3886247, “Aurora and FLT3 kinases modulators” (2015)

Molecular target: T1, Aurora kinase A (Homo sapiens, UniProt O14965)
T1 sequence (O14965 whole entry): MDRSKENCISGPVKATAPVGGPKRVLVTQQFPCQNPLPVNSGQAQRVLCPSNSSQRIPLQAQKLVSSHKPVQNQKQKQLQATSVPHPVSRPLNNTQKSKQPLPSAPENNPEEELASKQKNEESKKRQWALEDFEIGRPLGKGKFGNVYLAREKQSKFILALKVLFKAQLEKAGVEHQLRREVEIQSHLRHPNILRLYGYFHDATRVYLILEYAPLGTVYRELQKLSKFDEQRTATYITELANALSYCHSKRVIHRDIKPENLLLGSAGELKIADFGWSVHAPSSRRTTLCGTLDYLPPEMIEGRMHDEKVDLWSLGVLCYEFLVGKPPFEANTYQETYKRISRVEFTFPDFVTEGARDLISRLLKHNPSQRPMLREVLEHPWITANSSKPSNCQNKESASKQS
Experiment: Inhibition Assay: Kinase assays were performed at Reaction Biology Corp., Malvern, Pa., USA, using the following general procedure:1) Prepare indicated substrate in freshly prepared Base Reaction Buffer (20 mM Hepes pH 7.5, 10 mM MgCl2, 1 mM EGTA, 0.02% Brij35, 0.02 mg/ml BSA, 0.1 mM Na3VO4, 2 mM DTT, 1% DMSO).2) Deliver cofactors (1.5 mM CaCl2, 16 ug/mL Calmodulin, 2 mM MnCl2) to the substrate solution above.3) Deliver indicated kinase into the substrate solution and gently mix4) Deliver varying concentrations of test compound in DMSO into the kinase reaction mixture.5) Deliver 33P-ATP (specific activity 0.01 uCi/uL final) into the reaction mixture to initiate the reaction.6) Incubate kinase reaction for 120 min at room temperature.7) Reactions are spotted onto P81 ion exchange filter paper (Whatman #3698-915)8) Unbound phosphate is removed by washing filters extensively in 0.75% phosphoric acid.9) 33P signal was determined using Typhoon phosphorimagers (GE Healthcare).

IC50: 74.3 nM
Compound: CCc1ccc(-c2nc(C(N)=O)c(-c3ccc(N4CCNC(C)(C)C4)cc3)o2)c2cc[nH]c12
